Measured values: patent US8507219B2, “Method of treating inflammation with statins” (MUSC Foundation for Research Development, priority 1997, dated 2013)

Tested on: X-ALD fibroblasts

SMILES: CC[C@H](C)C(=O)O[C@H]1C[C@@H](C)C=C2C=C[C@H](C)[C@H](CC[C@@H]3C[C@@H](O)CC(=O)O3)[C@H]21 [Lovastatin]
- cytotoxicity at higher doses: cytotoxic to the X-ALD fibroblasts
